Consider 2 molecules from patent US20250177396A1, “POLO-LIKE KINASE 4 (PLK4) INHIBITORS, PHARMACEUTICAL COMPOSITIONS, METHODS OF PREPARATION AND USES THEREOF” (Repare Therapeutics Inc., priority 2022, published 2025).

Chains of the proteins cited; added tags and fusions are not shown.
UniProt O00444, whole entry: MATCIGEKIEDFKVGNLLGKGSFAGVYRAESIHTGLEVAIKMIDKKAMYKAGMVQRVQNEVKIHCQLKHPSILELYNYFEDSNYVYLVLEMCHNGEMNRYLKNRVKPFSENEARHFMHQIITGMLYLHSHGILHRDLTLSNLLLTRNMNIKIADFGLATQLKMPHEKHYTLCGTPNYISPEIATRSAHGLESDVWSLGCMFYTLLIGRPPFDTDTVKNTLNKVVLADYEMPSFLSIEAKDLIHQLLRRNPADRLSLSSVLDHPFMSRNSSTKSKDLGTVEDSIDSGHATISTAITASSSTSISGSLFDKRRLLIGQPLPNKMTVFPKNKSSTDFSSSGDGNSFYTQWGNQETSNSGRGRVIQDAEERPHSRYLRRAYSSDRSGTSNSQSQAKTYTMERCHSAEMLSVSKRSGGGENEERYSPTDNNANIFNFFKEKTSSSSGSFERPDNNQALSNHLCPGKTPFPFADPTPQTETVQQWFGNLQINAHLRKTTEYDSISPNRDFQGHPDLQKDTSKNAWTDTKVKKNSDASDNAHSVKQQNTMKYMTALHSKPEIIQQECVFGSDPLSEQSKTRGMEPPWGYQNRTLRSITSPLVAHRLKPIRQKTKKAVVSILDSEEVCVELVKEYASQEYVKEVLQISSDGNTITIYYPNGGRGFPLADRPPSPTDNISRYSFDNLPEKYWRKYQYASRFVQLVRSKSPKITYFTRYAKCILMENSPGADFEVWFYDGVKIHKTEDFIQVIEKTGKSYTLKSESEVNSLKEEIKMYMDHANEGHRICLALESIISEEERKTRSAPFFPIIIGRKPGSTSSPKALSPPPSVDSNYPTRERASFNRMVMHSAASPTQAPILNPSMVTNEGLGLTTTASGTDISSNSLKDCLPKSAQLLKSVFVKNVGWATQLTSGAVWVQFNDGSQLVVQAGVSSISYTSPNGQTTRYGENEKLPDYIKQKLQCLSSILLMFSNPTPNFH

This test addresses PLK4 (Homo sapiens, UniProt O00444). Briefly: PLK4 NanoBRET target engagement assay. To be noted: read-out: PLK4 NanoBRET IC50; HEK293 T cells transfected with PLK4 NanoLuc fusion vector; K-5 tracer; 2 hrs incubation. The class given is binding. Here is the method: To determine the affinity of Compounds described herein in the PLK4 NanoBRET target engagement assay, HEK293 T cells (ATCC Product Number CRL-3216) are first transfected with the PLK4 NanoLuc fusion vector DNA and Transfection carrier DNA using the Fugene HD Transfection reagent in Opti-MEM No Phenol Red buffer. After an overnight incubation in a 37° C./5% CO2 incubator, the transfected HEK293 T cells are trypsinized, counted, and resuspended in Opti-MEM No Phenol Red buffer at a concentration of 200000 cells/mL. White 96-well plates are then plated with 85 μL of cells (17000 cells/well) to which 5 μL of the 20×K-5 tracer solution diluted in tracer dilution buffer is added. Finally, 10 μL of the 10× compounds are added and the plates and then incubated in a 37° C./5% CO2 incubator for 2 hrs. After the incubation, a 50 uL 3× solution of the substrate/inhibitor mix is added to the cells. The plate is then transferred in the Envision plate reader where the Acceptor emission (610 nm) and the Donor emission (450 nm) are measured.
The IC50 of compounds is determined as follows: • 1. The ratio between the Acceptor emission (610 nm)/Donor emission (450 nm) is calculated. • 2. This ratio is then multiplied by 1000 to obtain the mBRET units (multiplying by 1000 is an arbitrary step that simply makes the data easier to interpret; it has no impact on the data set itself) • 3. […]
For orientation: In BRET a luciferase serves as donor, and the signal depends on an acceptor being close.

The term IC50 denotes the midpoint of a concentration-inhibition curve. As to `COc1c(Nc2cc(C)[nH]n2)nc(Oc2ccc(S(C)(=O)=O)cc2)nc1-c1cnn(C)c1`, the IC50 was 1200 nM. With `COc1c(Nc2cc(C)[nH]n2)nc(N(C)c2ccc(S(C)(=O)=O)cc2)nc1-c1cnn(C)c1` [Compound 83], the IC50 was 1600 nM.
